{
  "source": "patent EP2952518A1",
  "about": "“Organic Phosphonium Salts, a Method for their Preparation, and their Use in Electrochemical Systems” (priority 2014, dated 2015)",
  "key": {"[1]": {"test": "dynamic viscosity of phosphonium salts and mixtures", "type": "physicochemical"}, "[2]": {"conditions": "temperature at loss of 10 % of the mass, nitrogen atmosphere, heating rate 5 K/min"}},
  "data": [
    {"substance": "trimethyl-n-propylphosphonium 1,1,1-trifluoro-N-(trifluoromethylsulfonyl)methane-sulfonamide", "values": [
      {"measurement": "Viscosity at 50 °C", "setting": "[1]; 50 °C", "result": 25.6, "unit": "mPa·s"},
      {"measurement": "Viscosity at 60 °C", "setting": "[1]; 60 °C", "result": 18.9, "unit": "mPa·s"},
      {"measurement": "Viscosity at 70 °C", "setting": "[1]; 70 °C", "result": 14.5, "unit": "mPa·s"},
      {"measurement": "Viscosity at 80 °C", "setting": "[1]; 80 °C", "result": 11.5, "unit": "mPa·s"},
      {"measurement": "Conductivity at 20 °C", "setting": "20 °C", "result": 0.07, "unit": "mS/m"},
      {"measurement": "Conductivity at 50 °C", "setting": "50 °C", "result": 0.673, "unit": "S/m"},
      {"measurement": "Conductivity at 60 °C", "setting": "60 °C", "result": 0.913, "unit": "S/m"},
      {"measurement": "Conductivity at 70 °C", "setting": "70 °C", "result": 1.173, "unit": "S/m"},
      {"measurement": "Conductivity at 80 °C", "setting": "80 °C", "result": 1.461, "unit": "S/m"},
      {"measurement": "Thermostability", "setting": "[2]", "result": 414, "unit": "°C"}
    ]}
  ]
}
